The values that follow come from PubChem BioAssay AID687 (PCMD, 2007).

Protein sequences, listed by entry. Tags and fused reporters are not part of them. Residues count along the entry.
UniProt P03951, 19-387 limits assumed: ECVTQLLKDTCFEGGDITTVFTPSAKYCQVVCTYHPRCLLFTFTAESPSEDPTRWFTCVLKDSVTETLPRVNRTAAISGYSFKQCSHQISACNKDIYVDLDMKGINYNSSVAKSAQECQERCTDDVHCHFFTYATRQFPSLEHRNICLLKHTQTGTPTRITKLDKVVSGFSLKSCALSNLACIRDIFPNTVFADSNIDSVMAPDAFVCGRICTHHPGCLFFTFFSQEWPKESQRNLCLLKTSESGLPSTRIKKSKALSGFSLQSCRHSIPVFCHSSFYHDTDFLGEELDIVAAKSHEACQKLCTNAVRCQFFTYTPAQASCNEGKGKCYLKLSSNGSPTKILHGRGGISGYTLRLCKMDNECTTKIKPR
UniProt P03951, 388-625 limits assumed: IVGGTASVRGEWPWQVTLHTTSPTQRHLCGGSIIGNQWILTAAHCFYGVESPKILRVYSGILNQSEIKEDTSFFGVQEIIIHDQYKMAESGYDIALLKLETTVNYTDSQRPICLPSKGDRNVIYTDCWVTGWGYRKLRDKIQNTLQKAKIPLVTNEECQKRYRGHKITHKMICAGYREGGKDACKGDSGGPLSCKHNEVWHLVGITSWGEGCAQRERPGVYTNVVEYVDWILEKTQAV

Structures are written as SMILES. The list shows a part of the results, in another mix than the full data. Active and inactive are the calls of the source.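 Rule for the calls: active = inhibition above 40% in the primary screen; inactive = the rest.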

The assay addresses Coagulation factor XI (Homo sapiens) (UniProt P03951). Nature of the assay: human FXIa protease inhibitors, primary screen, biochemical, single compound per well (AID 687).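 Note: 0% = enzyme without compound and 100% = blank wells lacking enzyme.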 To be noted: purified human FXIa, fluorogenic AMC substrate cleavage; at 10 µM; stronger effect = higher value.
What is called inhibition is the relative decrease from the control value, in per cent. Regarding `c1ccc(CN2CCC(Nc3ccccc3)CC2)cc1`, the inhibition was inactive: -1.93%.

In the case of `CCC(CO)(C(=O)OC1CN2CCC1CC2)c1ccccc1` (centres undefined), the inhibition is inactive: 7.23%.

With `O=C(NCC1(N2CCOCC2)CCCCC1)c1cc2ccccc2o1`, the inhibition was inactive: 5.55%.

With `O=C(NCC1(N2CCOCC2)CCCCC1)c1cc(=O)[nH]c2ccccc12`, the inhibition is inactive: -3.3%.
